Data: PubChem BioAssay AID588591 (National Center for Advancing Translational Sciences (NCATS), 2011)
This is a selection; strong and weak results do not stand in their true shares. Results filed as inconclusive are left out. Calls of active or inactive are those of the source. The call rests on the fitted dose curve; in most records, active means well fitted inhibition curve with a large enough effect; inconclusive means small, poorly fitted or top-dose-only effect, or another doubt; inactive means no such curve, though single readings can be large or run the other way.

Protein sequences, listed by entry. Tags and fused reporters are not part of them.
UniProt Q9Y253, whole entry: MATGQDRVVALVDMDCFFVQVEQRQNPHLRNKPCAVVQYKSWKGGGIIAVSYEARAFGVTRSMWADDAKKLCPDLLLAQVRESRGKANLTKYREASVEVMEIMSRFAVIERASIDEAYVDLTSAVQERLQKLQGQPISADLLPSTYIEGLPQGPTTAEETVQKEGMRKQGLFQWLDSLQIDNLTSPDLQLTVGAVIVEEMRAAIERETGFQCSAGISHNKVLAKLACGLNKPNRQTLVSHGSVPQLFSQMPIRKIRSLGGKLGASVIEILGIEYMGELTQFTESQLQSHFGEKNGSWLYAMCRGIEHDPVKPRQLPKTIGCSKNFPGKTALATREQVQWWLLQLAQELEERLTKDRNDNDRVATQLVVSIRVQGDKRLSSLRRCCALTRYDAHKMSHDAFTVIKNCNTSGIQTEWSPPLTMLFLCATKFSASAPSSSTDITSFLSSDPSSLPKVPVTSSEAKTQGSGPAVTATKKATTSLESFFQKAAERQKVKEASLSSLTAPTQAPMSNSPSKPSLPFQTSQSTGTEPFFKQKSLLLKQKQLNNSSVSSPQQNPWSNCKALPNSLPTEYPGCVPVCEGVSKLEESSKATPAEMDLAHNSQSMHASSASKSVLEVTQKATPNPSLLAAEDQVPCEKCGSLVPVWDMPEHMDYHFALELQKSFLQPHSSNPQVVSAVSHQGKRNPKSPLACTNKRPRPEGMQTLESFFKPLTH

Target: DNA polymerase eta (Homo sapiens) (UniProt Q9Y253)
Assay: qHTS for Inhibitors of Polymerase Eta
Conditions: recombinant Pol eta, fluorescent DNA replication assay; at 114 µM (top of the series) unless noted
On the % scale 0 is the no-effect control and ±100 the full control effect.

Structure (SMILES) | activity change, negative = inhibition
CN(C)C(=O)c1c([N+](=O)[O-])cc([N+](=O)[O-])cc1[N+](=O)[O-] | inactive: -12.1%
CP(=O)(Nc1ccc(Cl)cc1)Oc1ccc(F)cc1 (centres undefined) | inactive: -2.21%
CC(C)(C)c1ccc(OP(C)(=O)O)cc1 | inactive: -5.56%
COc1ccccc1OP(C)(=O)Nc1ccccc1Br (centres undefined) | inactive: -11.5%
CP(=O)(Oc1ccccc1)N1CCOC1=O (centres undefined) | inactive: -2.91%
CCc1ccc(OP(C)(=O)Nc2cccnc2)cc1 (centres undefined) | inactive: -17.3%
COc1ccccc1OP(C)(=O)Nc1c(C)n(C)n(-c2ccccc2)c1=O (centres undefined) | inactive: -13.9%
O=C(OCCCN1CCCC1)C(O)(c1ccccc1)C1CCCCC1 (centres undefined) | inactive: 7.12%
N#[O+].[C-]#N.[C-]#N.[C-]#N.[C-]#N.[C-]#N.[Fe+2].[Na+].[Na+] | inactive: -6.71% [at 57.1 µM]
CCN(CC)CC(O)COC(=O)C(O)(c1ccccc1)C1CCCCC1 (centres undefined) | inactive: 1.96%
COc1ccc(OP(C)(=O)Nc2ccc(Br)cc2)cc1 (centres undefined) | inactive: -22%
CP(=O)(OC12CC3CC(CC(C3)C1)C2)OC12CC3CC(CC(C3)C1)C2 | inactive: -22.3%
CCOC(=O)c1ccc(NP(C)(=O)Oc2ccc(Cl)cc2)cc1 (centres undefined) | inactive: -21.2%
Nc1ccc2c(ccc3cccnc32)n1.O=[N+]([O-])c1cc([N+](=O)[O-])c(O)c([N+](=O)[O-])c1 | inactive: 4.73%
CP(=O)(OCCOc1ccccc1)OCCOc1ccccc1 | inactive: -0.034%
CP(=O)(Nc1ccc(Cl)cc1Cl)Oc1ccccc1 (centres undefined) | inactive: -4.66%
COc1ccc(OP(C)(=O)Nc2ccccc2Br)cc1 (centres undefined) | inactive: -8.37%
COc1ccccc1OP(C)(=O)Nc1ccc(C)c(C)c1 (centres undefined) | inactive: 0.059%
Cc1cc(C)cc(OP(C)(=O)Nc2cccc(C(F)(F)F)c2)c1 (centres undefined) | inactive: -7.59%
CCc1ccc(OP(C)(=O)O)cc1 | inactive: -14.5%
CP(=O)(Nc1ccccn1)Oc1ccccc1 (centres undefined) | inactive: 4.43%

Structure (SMILES) | activity change, negative = inhibition
COc1ccccc1OP(C)(=O)Nc1ccc(C)cc1C (centres undefined) | inactive: -2.88%
O=[N+]([O-])c1cc([N+](=O)[O-])c(Nc2ccccn2)c([N+](=O)[O-])c1 | inactive: -11.2%
Cc1c(NP(C)(=O)Oc2ccc(C(C)C)cc2)c(=O)n(-c2ccccc2)n1C (centres undefined) | inactive: -6.63%
CN(C)CCOC(=O)C(O)(c1ccccc1)C1CCCC1 (centres undefined) | inactive: -10.9%
COc1ccc(OP(C)(=O)Nc2ccccn2)cc1 (centres undefined) | inactive: -4.22%
COc1ccccc1OP(C)(=O)Nc1ccc(Br)cc1 (centres undefined) | inactive: -13.5%
O=C(OCCN1CCN(CCOCc2ccccc2)CC1)C(O)(c1ccccc1)c1ccccc1 | inactive: -3.75%
CC(C)c1ccc(OP(C)(=O)Nc2ccc(SC(F)(F)F)cc2)cc1 (centres undefined) | inactive: -18.1%
CP(=O)(Nc1ccccc1F)Oc1ccccc1 (centres undefined) | inactive: -0.488%
CP(=O)(Nc1ccccc1)Oc1ccc(F)cc1 (centres undefined) | inactive: -4.47%
CCN(CC)CCCOC(=O)C(O)(c1ccccc1)C1CCCCC1 (centres undefined) | inactive: -7.63%
Cc1c([N+](=O)[O-])cc([N+](=O)[O-])c(Br)c1[N+](=O)[O-] | inactive: -13.3%
COc1ccc(OP(C)(=O)Nc2ccc(SC(F)(F)F)cc2)cc1 (centres undefined) | inactive: -29.4%
CCOC(=O)c1ccc(NP(C)(=O)Oc2ccc(F)cc2)cc1 (centres undefined) | inactive: -19.2%
Cc1c(C(c2ccc3c(c2)OCO3)c2c(C)n(C)n(-c3ccccc3)c2=O)c(=O)n(-c2ccccc2)n1C.O=[N+]([O-])c1cc([N+](=O)[O-])c(O)c([N+](=O)[O-])c1 | inactive: -11.7%
Cc1cc(-c2cccc3ccccc23)c(C)cn1.O=[N+]([O-])c1cc([N+](=O)[O-])c(O)c([N+](=O)[O-])c1 | inactive: -9.67%
O=[N+]([O-])c1ccc(OP2(=O)COCCO2)cc1 (centres undefined) | inactive: 5.95%
COc1ccc(NP(C)(=O)Oc2ccccc2OC)cc1 (centres undefined) | inactive: -2.83%
CN(C)CCOC(=O)C(O)(c1ccccc1)C1CCCCC1 (centres undefined) | inactive: -16.7%
COc1ccc(OP(C)(=O)Nc2cccc(Br)c2)cc1 (centres undefined) | inactive: 4.71%
Cc1ccccc1NP(C)(=O)Nc1ccccc1C | inactive: -18.1%

Structure (SMILES) | activity change, negative = inhibition
CP(=O)(Nc1ccc2c(c1)OCCO2)Oc1ccccc1 (centres undefined) | inactive: -7.04%
CCOP(C)(=S)SCC(=O)NC(C)(CC)C(=O)O (centres undefined) | inactive: -7.41%
CP(=O)(Nc1ccc(SC(F)(F)F)cc1)Oc1ccc(F)cc1 (centres undefined) | inactive: -17.3%
Cc1nc2ccc3ccccc3c2s1.O=[N+]([O-])c1cc([N+](=O)[O-])c(O)c([N+](=O)[O-])c1 | inactive: -8.31%
O=[N+]([O-])c1cc([N+](=O)[O-])c(-c2cnn(-c3ccccc3)c2)c([N+](=O)[O-])c1 | inactive: -11.1%
O=[N+]([O-])c1cc([N+](=O)[O-])c(-n2nnc3ccccc32)c([N+](=O)[O-])c1 | inactive: 2.97%
CP(=O)(Nc1ccc(SC(F)(F)F)cc1)Oc1ccccc1 (centres undefined) | inactive: -8.89%
CCCOc1ccc(NP(C)(=O)Oc2ccc(Cl)cc2)cc1 (centres undefined) | inactive: -18.7%
CN1CCCCC1COC(=O)C1(O)c2ccccc2CCc2ccccc21 (centres undefined) | inactive: -13.3%
COc1ccccc1OP(C)(=O)Nc1c(C)cccc1C (centres undefined) | inactive: -2.64%
O=[N+]([O-])c1cc([N+](=O)[O-])c(Nc2nnnn2CCO)c([N+](=O)[O-])c1 | inactive: -6.2%
CC1=C2N=C(C=C3N=C(C(C)=C4[N-][C@@](C)([C@@H]5N=C1[C@](C)(CCC(=O)NC[C@@H](C)OP(=O)([O-])O[C@H]1[C@@H](O)[C@@H](n6cnc7cc(C)c(C)cc76)O[C@@H]1CO)[C@H]5CC(N)=O)[C@@](C)(CC(N)=O)[C@@H]4CCC(N)=O)[C@@](C)(CC(N)=O)[C@@H]3CCC(N)=O)C(C)(C)[C@@H]2CCC(N)=O.[C-]#N.[Co+3] | inactive: -4.76%
CC1=NCCc2c1[nH]c1ccccc21.O=[N+]([O-])c1cc([N+](=O)[O-])c(O)c([N+](=O)[O-])c1 | inactive: -8.26%
CP(=O)(Nc1cccc(Br)c1)Oc1ccccc1 (centres undefined) | inactive: -15%
Cc1cc(C)cc(OP(C)(=O)Nc2ccccn2)c1 (centres undefined) | inactive: -6.92%
Cc1ccc(C)c(NP(C)(=O)Oc2ccccc2)c1 (centres undefined) | inactive: 5.52%
Cc1cc(C)cc(OP(C)(=O)Nc2ccc(C)cc2C)c1 (centres undefined) | inactive: -7.74%
CCOC(=O)c1ccc(NP(C)(=O)Oc2cc(C)cc(C)c2)cc1 (centres undefined) | inactive: -5.3%
COc1ccccc1OP(C)(=O)Nc1cccc(Br)c1 (centres undefined) | inactive: -7.75%
CCN(CC)CCCOC(=O)C(O)(c1ccccc1)c1ccccc1 | inactive: -4.2%
COc1ccccc1OP(C)(=O)Nc1cc(Cl)ccc1C (centres undefined) | inactive: -13.9%

Structure (SMILES) | activity change, negative = inhibition
COc1ccc(OP(C)(=O)Nc2cccc(F)c2)cc1 (centres undefined) | inactive: -22%
Cc1cc(C)cc(OP(C)(N)=O)c1 (centres undefined) | inactive: -16.6%
CCOC(=O)c1ccc(NP(C)(=O)Oc2ccccc2)cc1 (centres undefined) | inactive: -12.7%
COc1ccccc1OP(C)(=O)Nc1ccc(C)cc1 (centres undefined) | inactive: -6.77%
Cc1ccc(NP(C)(=O)Oc2ccccc2)c(C)c1 (centres undefined) | inactive: -4.02%
Cc1cccc(C)c1OP(C)(N)=O (centres undefined) | inactive: 3.22%
O=[N+]([O-])c1ccc2c(c1)C=Nc1ccccc1O2 | inactive: -1.03%
O=[N+]([O-])c1cc([N+](=O)[O-])c(Nc2cccnc2)c([N+](=O)[O-])c1 | inactive: -22.5%
COc1ccccc1OP(C)(=O)Nc1ccccc1 (centres undefined) | inactive: -19.2%
CP(=O)(Nc1ccccc1Br)Oc1ccccc1 (centres undefined) | inactive: -17.9%
CP(=S)(Nn1cnnc1)Oc1ccccc1 (centres undefined) | inactive: -8.28%
CP(=O)(Nc1ccccn1)Oc1ccc(Cl)cc1 (centres undefined) | inactive: 1.12%
CCOP(C)(=S)SCC(=O)NC(C)C(=O)O (centres undefined) | inactive: -22.3%
O=[N+]([O-])c1cc([N+](=O)[O-])c(O)c([N+](=O)[O-])c1.c1ccc(Oc2ccncc2)cc1 | inactive: -3.49%
CCOC(=O)c1ccc(NP(C)(=O)Oc2ccc(OC)cc2)cc1 (centres undefined) | inactive: -15.4%
CCc1ccc(OP(C)(=O)N2CCN(c3ccc([N+](=O)[O-])cc3)CC2)cc1 (centres undefined) | inactive: -8.1%
CP(=O)(NC(=O)Nc1ccccc1)Oc1ccccc1 (centres undefined) | inactive: 0.601%
Cc1cc(C)cc(OP(C)(=O)Nc2ccc(SC(F)(F)F)cc2)c1 (centres undefined) | inactive: -12.3%
CP(=O)(Nc1ccc(SC(F)(F)F)cc1)Oc1ccc(Cl)cc1 (centres undefined) | inactive: -12.1%
Cc1cccc(C)c1OP(C)(=O)Nc1ccc(SC(F)(F)F)cc1 (centres undefined) | inactive: -22.2%
CP(=O)(Oc1ccccc1)OC(c1ccccc1)C(F)(F)F (centres undefined) | inactive: -5.92%
